The record followed here is PubChem BioAssay AID624297 (National Center for Advancing Translational Sciences (NCATS), 2012).

The list shows a part of the results, in another mix than the full data. Some tests of the compounds listed are not included; inactive here does not mean inactive elsewhere. Inconclusive results are not listed. Calls of active or inactive are those of the source. Calls follow the shape of the dose curve; as a rule, active = well fitted activation curve with a large enough effect; inconclusive = small, poorly fitted or top-dose-only effect; inactive = no such curve, though single readings can be large or run the other way.

The nature of this assay: A quantitative high throughput screen for small molecules that induce DNA re-replication in SW480 colon adenocarcinoma cells. Also: % of control where 0% means no effect; nearly all actives have a fitted effect of over 55% in size. Conditions: Hoechst DNA content imaging, 48 h; at 46.1 µM (top of the series).
Take `CC(C)Oc1ccc(C(=O)NCC2(N(C)C)CCCCC2)cc1`: the re-replication activation was inactive: -0.0097%.

For `CN(C)c1cccc(C(=O)NCC2(N(C)C)CCCCC2)c1`, the re-replication activation was inactive: -5.92%.

For `COc1ccc(Br)c(C(=O)NCC2(N3CCCCC3)CCCCC2)c1`, the re-replication activation was inactive: 13%.

As for `O=C(OC1CN2CCC1CC2)C(CO)(c1ccccc1)c1ccccc1` (stereo not given), the re-replication activation was inactive: -9.25%.

Regarding `O=C(NCC1(N2CCCCC2)CCCCC1)c1cccc(Cl)c1`, the re-replication activation is inactive: 0.641%.

With `COc1cccc(C(=O)NCC2(N3CCCCC3)CCCCC2)c1`, the re-replication activation was inactive: -3.72%.

For the compound `COc1ccc(Cl)cc1C(=O)NCC1(N(C)C)CCCCC1`, the re-replication activation was inactive: -2.79%.

For the compound `COc1cc(C(=O)NCC2(N(C)C)CCCCC2)c([N+](=O)[O-])cc1OC`, the re-replication activation is inactive: -6.45%.

On to `CN(C)C1(CNC(=O)c2ccc(Br)cc2)CCCCC1`, for which the re-replication activation was inactive: 3.24%.

`COc1ccc(C(=O)NCC2(N(C)C)CCCCC2)cc1`: the re-replication activation was inactive: -10.6%.

As for `Cc1cc(C(=O)NCC2(N3CCCCC3)CCCCC2)ccc1[N+](=O)[O-]`, the re-replication activation was inactive: -5.66%.

For the compound `CCN1CCCC(OC(=O)C2(O)c3ccccc3C=Cc3ccccc32)C1` (stereo not given), the re-replication activation is inactive: 14.8%.

In the case of `O=C(NCC1(N2CCCCC2)CCCCC1)c1cccc(Br)c1`, the re-replication activation is inactive: -2.74%.

In the case of `C=CCN1CCN(CCOC(=O)C(O)(c2ccccc2)c2ccccc2)CC1`, the re-replication activation is inactive: -9.3%.

In the case of `O=C(NCC1(N2CCCCC2)CCCCC1)c1cc(F)c(F)cc1Cl`, the re-replication activation was inactive: -1.42%.

`CN1CCCC(OC(=O)C(O)(c2ccccc2)c2ccccc2)C1` (stereo not given): the re-replication activation was inactive: 3.93%.

With `Cc1ccccc1C(=O)NCC1(N2CCCCC2)CCCCC1`, the re-replication activation is inactive: -3.59%.

Regarding `CN(C)C1CCCC1OC(=O)C(O)(c1ccccc1)c1ccccc1` (stereo not given), the re-replication activation was inactive: -2.46%.

`CN(C)c1ccc(C(=O)NCC2(N(C)C)CCCCC2)cc1`: the re-replication activation is inactive: -3.18%.

Take `Cc1ccc(C(=O)NCC2(N3CCCCC3)CCCCC2)cc1`: the re-replication activation is inactive: -1.17%.

Consider `CCN(CC)CC(C)C(C)OC(=O)C(O)(c1ccccc1)c1ccccc1` (stereo not given), for which the re-replication activation is inactive: -1.08%.

As to `COc1cc(SC)ccc1C(=O)NCC1(N(C)C)CCCCC1`, the re-replication activation was inactive: -2.56%.

Take `CC(C)N1C(=O)CC2(CCN(CCOC(=O)C(O)(c3ccccc3)c3ccccc3)CC2)C1=O`: the re-replication activation is inactive: -6.42%.

As for `CN1[C@@H]2CC[C@H]1CC(OC(=O)C(O)(c1ccccc1)c1ccccc1)C2` (stereo not given in full), the re-replication activation is inactive: -3.91%.

Regarding `O=C(NCC1(N2CCCCC2)CCCCC1)c1cc([N+](=O)[O-])ccc1Cl`, the re-replication activation is inactive: 2.88%.
